This assay relates to YES SH3. The format is binding, human.

Consider TSSIQSRPLPSPPKFT R7Q (TSSIQSQPLPSPPKFT), for which the “PSSM value of the single amino acid variant (DMS by phage display)” value (“PSSM value” below) came to 0.008905. Turning to TSSIQSRPLPSPPKFT R7R, the “PSSM value” value stood at 0.05251. As to TSSIQSRPLPSPPKFT R7S (TSSIQSSPLPSPPKFT), the “PSSM value” value stood at 0.007591. As to TSSIQSRPLPSPPKFT R7T (TSSIQSTPLPSPPKFT), the “PSSM value” value turned out to be 0.1212. Consider TSSIQSRPLPSPPKFT R7V (TSSIQSVPLPSPPKFT), for which the “PSSM value” value amounted to 0.004412. Consider TSSIQSRPLPSPPKFT R7W (TSSIQSWPLPSPPKFT), for which the “PSSM value” value turned out to be 0.105.

As to TSSIQSRPLPSPPKFT R7Y (TSSIQSYPLPSPPKFT), the “PSSM value” value was 0.007554. For the sequence TSSIQSRPLPSPPKFT S2A (TASIQSRPLPSPPKFT), the “PSSM value” value was 0.04994. In the case of TSSIQSRPLPSPPKFT S2D (TDSIQSRPLPSPPKFT) it was 0.02893; in that of TSSIQSRPLPSPPKFT S2E (TESIQSRPLPSPPKFT), 0.04579; in that of TSSIQSRPLPSPPKFT S2F (TFSIQSRPLPSPPKFT), 0.005213. Under TSSIQSRPLPSPPKFT S2G (TGSIQSRPLPSPPKFT) stands 0.2371; under TSSIQSRPLPSPPKFT S2H (THSIQSRPLPSPPKFT), 0.001057.

Turning to TSSIQSRPLPSPPKFT S2I (TISIQSRPLPSPPKFT), the “PSSM value” value came out at 0.01043.

As to TSSIQSRPLPSPPKFT S2K (TKSIQSRPLPSPPKFT), the “PSSM value” value is listed as 0. With TSSIQSRPLPSPPKFT S2L (TLSIQSRPLPSPPKFT), the “PSSM value” value is 0.008733.

As for TSSIQSRPLPSPPKFT S2M (TMSIQSRPLPSPPKFT), the “PSSM value” value worked out at 0.01061. Under TSSIQSRPLPSPPKFT S2N (TNSIQSRPLPSPPKFT) stands 0.01206; under TSSIQSRPLPSPPKFT S2P (TPSIQSRPLPSPPKFT), 0.01873. In the case of TSSIQSRPLPSPPKFT S2Q (TQSIQSRPLPSPPKFT) it was 0.002949; in that of TSSIQSRPLPSPPKFT S2R (TRSIQSRPLPSPPKFT), 0.009598; in that of TSSIQSRPLPSPPKFT S2S, 0.04758. For the sequence TSSIQSRPLPSPPKFT S2T (TTSIQSRPLPSPPKFT), the “PSSM value” value worked out at 0.2103. For TSSIQSRPLPSPPKFT S2V (TVSIQSRPLPSPPKFT), the “PSSM value” value turned out to be 0.00272.

With TSSIQSRPLPSPPKFT S2W (TWSIQSRPLPSPPKFT), the “PSSM value” value worked out at 0.2905.

Consider TSSIQSRPLPSPPKFT S2Y (TYSIQSRPLPSPPKFT), for which the “PSSM value” value came to 0.007735.

In the case of TSSIQSRPLPSPPKFT S3A (TSAIQSRPLPSPPKFT), the “PSSM value” value turned out to be 0.01428.

In the case of TSSIQSRPLPSPPKFT S3D (TSDIQSRPLPSPPKFT), the “PSSM value” value stood at 0. For TSSIQSRPLPSPPKFT S3E (TSEIQSRPLPSPPKFT), the “PSSM value” value is 0. In the case of TSSIQSRPLPSPPKFT S3F (TSFIQSRPLPSPPKFT) it was 0.03592; in that of TSSIQSRPLPSPPKFT S3G (TSGIQSRPLPSPPKFT), 0.003489; in that of TSSIQSRPLPSPPKFT S3H (TSHIQSRPLPSPPKFT), 0.02032.

Take TSSIQSRPLPSPPKFT S3I (TSIIQSRPLPSPPKFT): the “PSSM value” value stood at 0.4848. For TSSIQSRPLPSPPKFT S3K (TSKIQSRPLPSPPKFT), the “PSSM value” value was found to be 0.0006253. Under TSSIQSRPLPSPPKFT S3L (TSLIQSRPLPSPPKFT) stands 0.227; under TSSIQSRPLPSPPKFT S3M (TSMIQSRPLPSPPKFT), 0.02226; under TSSIQSRPLPSPPKFT S3N (TSNIQSRPLPSPPKFT), 0.009116. On to TSSIQSRPLPSPPKFT S3P (TSPIQSRPLPSPPKFT), for which the “PSSM value” value was 0.00677. As to TSSIQSRPLPSPPKFT S3Q (TSQIQSRPLPSPPKFT), the “PSSM value” value was 0.03591. For the sequence TSSIQSRPLPSPPKFT S3R (TSRIQSRPLPSPPKFT), the “PSSM value” value is 0. Under TSSIQSRPLPSPPKFT S3S stands 0.02815; under TSSIQSRPLPSPPKFT S3T (TSTIQSRPLPSPPKFT), 0.0229; under TSSIQSRPLPSPPKFT S3V (TSVIQSRPLPSPPKFT), 0.03603. In the case of TSSIQSRPLPSPPKFT S3W (TSWIQSRPLPSPPKFT), the “PSSM value” value came out at 0.008472. TSSIQSRPLPSPPKFT S3Y (TSYIQSRPLPSPPKFT): the “PSSM value” value was found to be 0.04396. In the case of TSSIQSRPLPSPPKFT S6A (TSSIQARPLPSPPKFT) it was 0.009111; in that of TSSIQSRPLPSPPKFT S6D (TSSIQDRPLPSPPKFT), 0.04418. For the sequence TSSIQSRPLPSPPKFT S6E (TSSIQERPLPSPPKFT), the “PSSM value” value is reported as 0.1169. As for TSSIQSRPLPSPPKFT S6F (TSSIQFRPLPSPPKFT), the “PSSM value” value was found to be 0.004503. For the sequence TSSIQSRPLPSPPKFT S6G (TSSIQGRPLPSPPKFT), the “PSSM value” value was found to be 0.1396. In the case of TSSIQSRPLPSPPKFT S6H (TSSIQHRPLPSPPKFT) it was 0.01283.

With TSSIQSRPLPSPPKFT S6I (TSSIQIRPLPSPPKFT), the “PSSM value” value was 0.03658.

As for TSSIQSRPLPSPPKFT S6K (TSSIQKRPLPSPPKFT), the “PSSM value” value worked out at 0.01414. With TSSIQSRPLPSPPKFT S6L (TSSIQLRPLPSPPKFT), the “PSSM value” value was found to be 0.08273. In the case of TSSIQSRPLPSPPKFT S6M (TSSIQMRPLPSPPKFT) it was 0.2397; in that of TSSIQSRPLPSPPKFT S6N (TSSIQNRPLPSPPKFT), 0.03439. Take TSSIQSRPLPSPPKFT S6P (TSSIQPRPLPSPPKFT): the “PSSM value” value is 0.02186. TSSIQSRPLPSPPKFT S6Q (TSSIQQRPLPSPPKFT): the “PSSM value” value is on record as 0.004525. For the sequence TSSIQSRPLPSPPKFT S6R (TSSIQRRPLPSPPKFT), the “PSSM value” value was 0. For the sequence TSSIQSRPLPSPPKFT S6S, the “PSSM value” value was found to be 0.03693. Turning to TSSIQSRPLPSPPKFT S6T (TSSIQTRPLPSPPKFT), the “PSSM value” value amounted to 0.01059. For TSSIQSRPLPSPPKFT S6V (TSSIQVRPLPSPPKFT), the “PSSM value” value turned out to be 0.03199. As for TSSIQSRPLPSPPKFT S6W (TSSIQWRPLPSPPKFT), the “PSSM value” value is 0.01116. Consider TSSIQSRPLPSPPKFT S6Y (TSSIQYRPLPSPPKFT), for which the “PSSM value” value was 0.1483. With “TSSIQSRPLPSPPKFT S11A (TSSIQSRPLPAPPKFT)”, the “PSSM value” value is listed as 0.01542. Under “TSSIQSRPLPSPPKFT S11D (TSSIQSRPLPDPPKFT)” stands 0.06458; under “TSSIQSRPLPSPPKFT S11E (TSSIQSRPLPEPPKFT)”, 0.5023. Take “TSSIQSRPLPSPPKFT S11F (TSSIQSRPLPFPPKFT)”: the “PSSM value” value turned out to be 0.0222. “TSSIQSRPLPSPPKFT S11G (TSSIQSRPLPGPPKFT)”: the “PSSM value” value came out at 0.0003669. Regarding “TSSIQSRPLPSPPKFT S11H (TSSIQSRPLPHPPKFT)”, the “PSSM value” value came to 0.03933.

Consider “TSSIQSRPLPSPPKFT S11I (TSSIQSRPLPIPPKFT)”, for which the “PSSM value” value is recorded as 0.01708. For the sequence “TSSIQSRPLPSPPKFT S11K (TSSIQSRPLPKPPKFT)”, the “PSSM value” value turned out to be 0.1065. Consider “TSSIQSRPLPSPPKFT S11L (TSSIQSRPLPLPPKFT)”, for which the “PSSM value” value is 0.00275. Consider “TSSIQSRPLPSPPKFT S11M (TSSIQSRPLPMPPKFT)”, for which the “PSSM value” value came out at 0.008974.

As to “TSSIQSRPLPSPPKFT S11N (TSSIQSRPLPNPPKFT)”, the “PSSM value” value is 0.03033. Take “TSSIQSRPLPSPPKFT S11P (TSSIQSRPLPPPPKFT)”: the “PSSM value” value turned out to be 0.02315. On to “TSSIQSRPLPSPPKFT S11Q (TSSIQSRPLPQPPKFT)”, for which the “PSSM value” value was 0.003114. In the case of “TSSIQSRPLPSPPKFT S11R (TSSIQSRPLPRPPKFT)”, the “PSSM value” value is recorded as 0.003596. Under TSSIQSRPLPSPPKFT S11S stands 0.02544; under “TSSIQSRPLPSPPKFT S11T (TSSIQSRPLPTPPKFT)”, 0.0519; under “TSSIQSRPLPSPPKFT S11V (TSSIQSRPLPVPPKFT)”, 0.07552.
